## Yeast mating assay 1: variants of the scFv Ab-14

From the AlphaSeq antibody data of Engelhart et al. 2022 (doi:10.1038/s41597-022-01779-4), copy in the FLAb collection.

All variants were tested on one target, the spike HR2 peptide PDVDLGDISGINAS (SARS-CoV-2).

Parent scFv Ab-14: VH joined to VL by three GGGGS repeats. Changes lie in the light chain CDRs alone.
VH: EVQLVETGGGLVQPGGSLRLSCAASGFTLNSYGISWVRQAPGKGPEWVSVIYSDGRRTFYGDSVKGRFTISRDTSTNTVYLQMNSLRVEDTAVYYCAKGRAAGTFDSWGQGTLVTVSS
VL: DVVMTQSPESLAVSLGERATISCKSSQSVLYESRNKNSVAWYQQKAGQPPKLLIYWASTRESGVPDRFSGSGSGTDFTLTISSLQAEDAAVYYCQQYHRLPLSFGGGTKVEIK

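The starting antibody came from a phage panning campaign against this peptide. Library AAYL50 holds single substitutions and randomly drawn double and triple substitutions in the CDRs. AlphaSeq pools MATa yeast showing the antibodies with MATalpha yeast showing the peptide. Pairs that bind mate more often; barcode pairs of the diploids are counted by sequencing. A regression on co-assayed BCL2-family reference pairs converts the normalised counts of each replicate to an apparent Kd. Mating was done three times.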

Changes read parent residue, position, new residue, counted from the first residue of the VL shown. Numbers give log10(Kd / nM), so 0 is 1 nM and 3 is 1 µM. Smaller is tighter. "nd" marks a missing value. The strain was present, yet no cells mated with the target were sequenced in that replicate, which points to weak or no binding. Empty control strains, which show no peptide, gave a signal in 18% of pairings with library AAYL50; the median was 4.19 and 95% of these signals were weaker than 2.99. No background was subtracted. Also given: how often the same scFv was detected with the empty control strains. Parent in this assay: reference entry 0.65, copy in this library 1.68.

With S38H S62M the result was 1.35, 1.83, 1.76 (controls 2 of 9).
With H98W L100P L102W the result was 4.49, nd, nd (controls 1 of 9).
With Q27F Q95L R99H the result was nd, 4.28, 4.00 (controls 1 of 9).
With S33Q W56L Q95C the result was 3.16, 2.58, 3.70 (controls 4 of 9).
With T59Y R60G Y97D the result was nd, nd, nd (controls 0 of 9).
With N35H S38D Q95V the result was nd, 3.99, 3.98 (controls 4 of 9).
With A40P R60N S103D the result was nd, 3.31, nd (controls 1 of 9).
With L30S Y31H S62W the result was 1.06, 1.15, 1.32 (controls 2 of 9).
With Y31T S58Q R99E the result was 1.66, 1.49, 1.70 (controls 1 of 9).
With K36Y A40R Q96I the result was nd, nd, nd (controls 1 of 9).
With K24H Q27C V29F the result was 1.32, 1.52, 1.38 (controls 0 of 9).
With A40I T59R S103E the result was nd, nd, nd (controls 2 of 9).
With S33G V39L A57V the result was 3.07, 2.55, 2.55 (controls 2 of 9).
With L30R S38Q E61I the result was 2.79, 2.16, nd (controls 1 of 9).
With K36H A40W E61K the result was nd, 3.33, nd (controls 2 of 9).
With K36N E61D the result was nd, nd, 2.27 (controls 0 of 9).
With Q27E E61D R99H the result was 0.87, 1.16, 0.99 (controls 1 of 9).
With S25A S26D L30T the result was 0.45, 0.72, 0.64 (controls 1 of 9).
With E32V N35T V39Y the result was 4.47, nd, nd (controls 1 of 9).
With S38H S62M H98V the result was 2.81, 4.50, 3.31 (controls 3 of 9).
With S58R T59P R60Q the result was nd, nd, nd (controls 0 of 9).
With V29M N35H V39Q the result was 4.48, 3.01, nd (controls 1 of 9).
With K24F L30Q the result was 0.90, 0.97, 1.18 (controls 0 of 9).
With V29L S38Q T59E the result was nd, nd, nd (controls 0 of 9).
With N35H W56N L100F the result was -0.15, 0.23, 0.01 (controls 4 of 9).
With S25R S26L S103C the result was nd, nd, nd (controls 1 of 9).
With Q27T E61V S62A the result was 0.40, 0.70, 0.62 (controls 0 of 9).
With K24Y Y31H E61M the result was 2.18, 2.38, 2.54 (controls 1 of 9).
With A40K S58V H98G the result was 5.31, nd, 4.41 (controls 3 of 9).
With R34M E61C L102Y the result was 0.84, 0.81, 0.90 (controls 2 of 9).
With S58V L100Y P101M the result was 6.63, 4.47, 4.28 (controls 7 of 9).
With S28K Q95K P101A the result was nd, nd, nd (controls 0 of 9).
With N35D S38G L100K the result was nd, nd, nd (controls 3 of 9).
With Y31H R60Q H98T the result was nd, 3.19, 2.97 (controls 2 of 9).
With S38D A40P R60D the result was nd, nd, 4.88 (controls 3 of 9).
With V29Y S33V H98S the result was 1.53, 1.37, 1.70 (controls 0 of 9).
With S38R H98M L100T the result was nd, 4.75, 4.73 (controls 6 of 9).
With Q27F S28M W56I the result was nd, nd, nd (controls 3 of 9).
With K24E V39K R60D the result was nd, 3.58, nd (controls 1 of 9).
With S25W K36P H98T the result was 0.47, 0.58, 0.29 (controls 1 of 9).

Picked from the list: the 2 lowest averages where every replicate gave a value.

N35H W56N L100F: -0.15, 0.23, 0.01 (controls 4 of 9).
S25W K36P H98T: 0.47, 0.58, 0.29 (controls 1 of 9).